Results from ChEMBL document CHEMBL1122591, “(Imidazolylphenyl)formamidines. A structurally novel class of potent histamine H2 receptor antagonists” (J Med Chem, 1984).

Protein sequences, listed by entry. Tags and fused reporters are not part of them.
UniProt P47747, whole entry: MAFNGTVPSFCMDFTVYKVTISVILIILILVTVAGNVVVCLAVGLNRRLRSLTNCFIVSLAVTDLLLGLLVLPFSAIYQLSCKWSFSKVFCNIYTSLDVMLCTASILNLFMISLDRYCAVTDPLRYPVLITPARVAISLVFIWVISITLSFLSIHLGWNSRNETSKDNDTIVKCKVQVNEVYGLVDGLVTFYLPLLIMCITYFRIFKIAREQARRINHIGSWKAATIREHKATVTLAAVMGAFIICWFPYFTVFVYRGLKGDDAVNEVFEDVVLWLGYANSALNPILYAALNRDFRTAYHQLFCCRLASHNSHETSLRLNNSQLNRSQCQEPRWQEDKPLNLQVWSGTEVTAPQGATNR

Molecular target: Histamine H2 receptor (Cavia porcellus) (UniProt P47747)
Test: Evaluated in vitro for histamine H2 receptor antagonist activity by using histamine-stimulated chronotropic response of the guinea pig atrium
Format: functional, tissue-based
Conditions: Cardiac atrium

**Q.** For CN/C(=N\CCSCc1nc[nH]c1C)NC#N [CIMETIDINE], which Kb is on record?
**A.** 0.47 µM
